Rango dissoc inh = prevents RanGTP from dissociating the Rango-importin beta complex; O95149+P62826; Biochemical FRET Rango-importin beta, RanGTP-induced dissociation; Potency, µM (series often up to 46.1 µM), for inactives: at the highest dose activity change, negative = inhibition; 340,000 compounds, 0.071% hits; note: % of control where 0% means no effect; nearly all actives have a fitted effect of over 45% in size
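Rango (0.1 uM)–importin beta (0.25 uM) complex; RanGTP-RCC1 trigger; 45 min RT; CFP/YFP FRET read.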
Rango-impB inh = prevents formation of the Rango-importin beta complex; Rango CFP/YFP FRET sensor + importin beta, 45 min; Q14974; AID 540263; Potency, µM (highest dose often 92.2 µM), for the others: at the top dose inhibition of complex formation; 340,000 compounds, 0.031% hits;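 note: 0% = DMSO wells and 100% = buffer wells lacking importin beta; nearly all actives have a fitted effect of over 15% in size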
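FRET biosensor Rango (snurportin 1 IBB between N-terminal EYFP and C-terminal Cerulean), 50 nM in PBS/1 mM DTT/0.02% Tween-20/0.1% BSA, preincubated 5 min RT with compound; 0.125 microM importin beta added, 45 min RT, CFP/YFP FRET ratio read.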
TDP1 inh = TDP1 (human) enzyme inhibition. AID 485290. Q9NUW8. recombinant TDP1, AlphaScreen DNA substrate cleavage. Potency, µM (titrated, usually from 130 µM), for the others: at the highest dose activity change, negative = inhibition, usual class: inhibitors. 350,000 compounds, 0.28% hits; active = well fitted curve in the direction sought with a large enough effect; inconclusive = small, poorly fitted or top-dose-only effect, or another doubt; inactive = no such curve, though single readings can be large; an effect the other way counts as inactive or inconclusive; note: % is set by controls: 0 for no effect and ±100 for the full control effect; nearly all actives have a fitted effect of over 40% in size
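Recombinant human Tdp1 (E. coli-expressed, 1 nM final) preincubated with compounds 15 min at room temperature, then 5'-biotin/3'-phosphotyrosine-FITC DNA substrate (15 nM final) added for 5 min. AlphaScreen beads (10 ug/ml final) added 10 min; cleavage lowers signal.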
ALOX12 inh = blocks human arachidonate 12S-lipoxygenase; 580,000 compounds, 1.1% hits; purified 12hLO, xylenol orange hydroperoxide absorbance; Potency, µM (highest dose often 108 µM), inactives show top-dose activity change, negative = inhibition, hits mostly inhibitors; AID 1671190; active = well fitted curve in the direction sought with a large enough effect; inconclusive = small, poorly fitted or top-dose-only effect, or another doubt; inactive = no such curve, though single readings can be large; an effect the other way counts as inactive or inconclusive; note: % is set by controls: 0 for no effect and ±100 for the full control effect
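Purified human 12hLO at 150 nM in 25 mM Hepes, 0.01% Triton X-100, pH 7.0, preincubated 15 min at room temperature with compound. Reaction started with 40 uM arachidonic acid, 30 min at room temperature. Hydroperoxide measured by Fe-xylenol orange, 573/405 nm absorbance ratio.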
ClpP mod = qHTS Assay for Activators of ClpP. ATP-dependent Clp protease proteolytic subunit (Bacillus subtilis (strain 168)), P80244. purified B. subtilis ClpP, FRET peptide cleavage, 20 min. Potency, µM (top dose mostly 57.5 µM), for the others: at the top dose activity change, negative = active. 340,000 compounds, 1.9% hits; active = well fitted falling curve with a large enough effect; inconclusive = small, poorly fitted or top-dose-only effect; inactive = no such curve, though single readings can be large or run the other way; note: the source files actives as falling curves though it sought activators and does not explain the sign; nearly all actives have a fitted effect of over 65% in size
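Buffer: 100 mM Tris/HCl pH8, 100 mM KCl, 0.05% low protease BSA, 2.5% glycerol, 0.01% Tween-20. ClpP 10 microg/mL final; 20 min RT; delta FRET normalized to ADEP and DMSO controls.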
TSG101-PTAP inh = blocks PTAP/TSG101 interaction to inhibit HIV-1 budding. Q99816. Fluorescence polarization, FITC-PTAP peptide / Tsg101 binding. Potency, µM (series often up to 115 µM), for inactives: at the top dose activity change, negative = inhibition, most hits filed as inhibitors. 340,000 tested, under 10 active. AID 493005; active = well fitted inhibition curve with a large enough effect in the main read-out, with a control signal flat, not every such curve was filed as active; inconclusive = small, poorly fitted or top-dose-only effect, or effect the other way, or a change in a side signal; inactive = no such curve, though single readings can be large or run the other way; note: % of control where 0% means no effect
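Fluorescence polarization binding of Tsg101 binding domain (10 uM final) to FITC-labeled PTAP peptide (50 nM final) in HEPES pH 7.5 buffer with NaCl, Tween 20, EDTA, TCEP. Compounds added before peptide; binding 20 min at RT.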
* marks the source's active call; other numbers are inactive results; ? = inconclusive; . = no result given; ! = a repeat was not active; [ ] = another dose, or the depositor's remark. A selection: hits, their analogues and other compounds. The true share with any hit is near 2.4%. Unless noted, calls come from the whole dose curve. Potency is the fitted concentration of half-maximal effect.

# | mol | Rango dissoc inh | Rango-impB inh | TDP1 inh | ALOX12 inh | ClpP mod | TSG101-PTAP inh
1 | Clc1cccc(-c2nc(NCCCN3CCOCC3)c3ccccc3n2)c1 | 2.8% | -0.5% | -2.6% | ? | -5.1% | -3.8%
2 | Clc1ccc2oc(-c3ccccc3)cc(=NCCCN3CCOCC3)c2c1 | -15.8% | 0.3% | 6.1% | 14.1µM* | . | -1.1%
3 | CC(C)c1ccc(O)c(=O)cc1 | . | . | . | 22.4µM* | . | .
4 | Cc1ccc(CNC(=O)c2cccc3c2C(=O)c2ccc(N4CCOCC4)cc2S3(=O)=O)cc1 | ? | ? | -7.0% | 8.2% | -0.7% | 4.9%
5 | COCCNC(=O)c1cccc2c1C(=O)c1ccc(N3CCOCC3)cc1S2(=O)=O | -6.1% | 46.1µM* | 0.7% | ? | -0.7% | 0.2%
6 | COc1ccc(Cl)cc1C(=O)NC1CCN(C(=O)c2cc3c(=O)[nH]c(C)cn3n2)CC1 | . | . | . | 44.6% | . | .
7 | O=C(NCc1ccccc1)c1ccc(NC(=O)N2CCSc3ncccc32)cc1 | . | . | 2.8% | -9.4% | 31.6µM* | .
8 | Cc1ccc(CNC(=O)c2ccc(NC(=O)N3CCSc4ncccc43)cc2)cc1 | . | . | -1.9% | 0.0% | 4.0% | .
9 | CCc1ccc(CNC(=O)c2ccc(NC(=O)N3CCSc4ncccc43)cc2)cc1 | . | . | 2.8% | -21.7% | 31.6µM* | .
10 | CCOc1ccc(CNC(=O)c2cccc(NC(=O)N3CCSc4ncccc43)c2)cc1 | . | . | 5.6% | ? | -13.6% | .
11 | Cc1ccccc1CNC(=O)c1cccc(NC(=O)N2CCSc3ncccc32)c1 | . | . | 5.6% | -26.1% | 31.6µM* | .
12 | O=C(Nc1ccc2[nH]c(=S)sc2c1)Nc1ccccc1F | -7.8% | 0.0% | 11.4% | 14.1µM* | 1.7% | -6.2%
13 | CCNc1cc(N2CCC(CCC(=O)NCCc3ccccn3)CC2)ncn1 | . | . | . | 63.4% | . | .
14 | Cc1cc(F)ccc1NC(=O)C1CN(S(C)(=O)=O)CC12CCCCC2 (stereo not drawn) | . | . | . | 11.1% | . | .
15 | COc1ccc2c(c1)CCCN2S(=O)(=O)c1cc(C)ccc1C | . | . | . | 1.3% | . | .
16 | Cc1[nH]c(=S)sc1Cc1cccc(C(F)(F)F)c1 | . | . | . | 25.1µM* | . | .
17 | CC(C)(C)c1ccc(C(=O)Nc2ccc(Br)cc2F)cc1 | . | . | . | 31.0% | . | .
18 | Cc1ccc(NC2CCCN(C(=O)c3ccc4nccnc4c3)C2)cc1C (stereo not drawn) | 0.7% | -0.7% | 4.5% | 7.9% | 15.8µM* | -0.4%
19 | COc1ccc(C2(C(=O)N3CCC(n4cc(-c5nc(C)no5)nn4)CC3)CC2)cc1 | . | . | . | 17.2% | . | .
20 | O=C(Nc1ccccc1)O[C@@H]1CO[C@H]2[C@@H]1OC[C@@H]2NCc1ccccc1 | . | . | . | -3.9%[176 µM] | . | .
21 | C=CCOc1cccc(C2C(C(=O)c3ccco3)=C(O)C(=O)N2Cc2ccco2)c1 (stereo not drawn) | 1.4% | -2.8% | . | 44.7µM* | . | -1.2%
22 | O=C(c1ccccc1)N1CCC2(C1)C(=NC1CCCC1)NC(=O)N2c1cccnc1 (stereo not drawn) | . | . | . | 38.8% | . | .
23 | COc1ccc2oc(-c3ccc(C)c(NC(=O)CSc4ccc(Cl)cc4)c3)nc2c1 | 6.9% | -2.8% | 0.6% | -13.1% | 11.2µM*! | -1.7%
24 | CCn1ccc(C(=O)N2CCOc3ccc(CN4CCCCC4)cc3C2)n1 | . | . | . | 18.8% | . | .
25 | CN1CC(=O)N(c2ccccc2)Cc2c1ncnc2N1CCc2ccccc2C1 | . | . | . | 31.6µM* | . | .
26 | NC1=C(Br)C(=O)c2ncccc2C1=O | -4.8% | -5.2% | . | ? | -3.0% | 1.2%
27 | O=C1C=C(NCCc2cc(Br)c(O)c(Br)c2)C(=O)c2ncccc21 | -14.3% | ? | . | 35.5µM* | -12.9% | -10.5%
28 | COc1ccc(-c2oc3ncnc(N)c3c2-c2ccccc2)cc1 | -2.1% | -0.2% | 4.6% | 0.0% | 35.5µM* | 3.1%
29 | OCCCc1cn(Cc2ccccc2)c2ccccc12 | 4.1% | 0.7% | . | -19.7% | 17.8µM* | 1.6%
30 | c1ccc(Cn2cc(CCOCc3ccccn3)c3ccccc32)cc1 | . | . | . | 0.5% | . | .
31 | O=C1[C@@H]2C[C@@H](CN2Cc2cnc3ccccc3c2)Oc2ccccc2N1CC1CC1 | . | . | . | 23.3%[176 µM] | . | .
32 | O=S(c1ccccc1)C(c1ccccc1)c1ccccc1 (stereo not drawn) | -0.2% | 0.1% | . | 31.6µM* | 15.8µM* | -0.2%
33 | OC(CC(O)c1ccccc1)c1ccccc1 (stereo not drawn) | 1.8% | -0.5% | . | 1.7% | 0.4% | 1.3%
34 | O=S(CC(O)c1ccccc1)c1ccccc1 (stereo not drawn) | . | . | . | 28.2µM* | 0.6% | .
35 | Cc1ccc(S(=O)C(c2ccccc2)c2ccccc2)cc1 (stereo not drawn) | 0.6% | 4.6% | . | 22.4µM* | 0.8% | 1.6%
36 | CN(CC(=O)NCC(F)(F)F)C(c1ccccc1)c1ccccc1 | . | . | . | 10.3% | . | .
37 | CC1CCN(C(=O)CSc2nc(-c3cccs3)nc3ccccc23)CC1 | . | . | . | -42.4% | . | .
38 | O=C(Cn1cccc1-c1nc(-c2ccc3c(c2)OCO3)no1)Nc1ccc(F)c(F)c1 | . | . | . | -12.0% | . | .
39 | CCOc1ccc(NC(=O)C(CC)Oc2ccccc2F)c2cccnc12 (stereo not drawn) | . | . | . | -13.7% | . | .
40 | CCOc1ccc2[nH]c3c(NCCO)ncnc3c2c1 | -20.7% | -0.8% | . | 108.0% | 3.7% | -7.6%

The closing 2 records of the part before come first, to join the parts.
# | mol | Rango dissoc inh | Rango-impB inh | TDP1 inh | ALOX12 inh | ClpP mod | TSG101-PTAP inh
39 | CCOc1ccc(NC(=O)C(CC)Oc2ccccc2F)c2cccnc12 (stereo not drawn) | . | . | . | -13.7% | . | .
40 | CCOc1ccc2[nH]c3c(NCCO)ncnc3c2c1 | -20.7% | -0.8% | . | 108.0% | 3.7% | -7.6%
41 | C=CCNc1ncnc2c1[nH]c1ccc(Cl)cc12 | 0.2% | 0.2% | 2.0% | -5.3% | 28.2µM* | 0.9%
42 | O=C(OCc1noc(-c2ccco2)n1)c1cc(Br)c[nH]1 | . | . | . | 25.1µM* | . | .
43 | O=C(OCc1noc(-c2ccco2)n1)c1cncc(Br)c1 | . | . | . | 7.3% | . | .
44 | Nc1ccc(Oc2ccc(N)c([N+](=O)[O-])c2)cc1[N+](=O)[O-] | . | . | . | ? | -0.3% | .
45 | CC1(C)Oc2cc(N)c([N+](=O)[O-])cc2O1 | 2.7% | -2.1% | -11.8% | ? | 31.6µM* | -2.0%
46 | COc1ccc(C2CC(c3ccc4ccccc4c3)=NN2C(=O)CNC2CCCCC2)cc1 (stereo not drawn) | 0.9% | -2.8% | -1.2% | 44.7µM* | 4.2% | -2.5%
47 | NC(=S)NNC(=O)Nc1ccc(Cl)c(Cl)c1 | 1.4% | -3.2% | 5.6% | ? | 22.4µM* | 0.1%
48 | O=C(Cc1ccccc1)NNC(=O)Nc1ccc(Cl)c(Cl)c1 | 15.5% | 1.8% | -4.6% | 2.8% | . | -2.4%
49 | CC(C)(C)C(=O)Nc1cc(S(=O)(=O)Nc2ccc(Cl)cc2)ccc1O | -0.3% | -0.4% | 0.0% | 39.8µM* | . | -5.2%
50 | CS(=O)(=O)Nc1ccccc1C(=O)NCc1ccco1 | 5.3% | 7.3% | 4.4% | -9.5% | 28.2µM* | -0.9%
51 | Cc1ccc(CNC(=O)c2ccccc2NS(C)(=O)=O)cc1 | 1.1% | -1.2% | 6.9% | 0.0% | 28.2µM* | 0.6%

In a second layout: entries from further up.
41: C=CCNc1ncnc2c1[nH]c1ccc(Cl)cc12
51: Cc1ccc(CNC(=O)c2ccccc2NS(C)(=O)=O)cc1

Assay by compound | 41 | 51
Rango dissoc inh | 0.2% | 1.1%
Rango-impB inh | 0.2% | -1.2%
TDP1 inh | 2.0% | 6.9%
ALOX12 inh | -5.3% | 0.0%
ClpP mod | 28.2µM* | 28.2µM*
TSG101-PTAP inh | 0.9% | 0.6%

Compound activity from PubChem BioAssay.
